Test results published in ChEMBL document CHEMBL6103567, “A novel pyridine-2-one AMPK inhibitor: Discovery, mechanism, and in vivo evaluation in a hypoxic pulmonary arterial hypertension rat model” (Eur J Med Chem, 2025).

Key:
[1] = tested on: Rattus norvegicus; test: Antifibrotic activity against hypoxia-induced Pulmonary Arterial Hypertension Sprague-Dawley rat model assessed as change in smad3 level in lung at 30 mg/kg, po; type: functional, organism-based
[2] = tested on: Rattus norvegicus; test: Antifibrotic activity against hypoxia-induced Pulmonary Arterial Hypertension Sprague-Dawley rat model assessed as change in collagen-1 level in lung at 30 mg/kg, po; type: functional, organism-based
[3] = tested on: PASMC; test: Inhibition of autophagy in human PASMC cells at 5 uM incubated for 12 hrs under hypoxic condition by MDC staining based fluorescence microscopic assay; type: functional, cell-based
[4] = tested on: PASMC; test: Inhibition of autophagy in human PASMC cells assessed as increase in p62 level at 5 uM incubated for 24 hrs under hypoxic condition by Western blotting analysis; type: functional, cell-based
[5] = tested on: Rattus norvegicus; test: Antifibrotic activity against hypoxia-induced Pulmonary Arterial Hypertension Sprague-Dawley rat model assessed as change in alpha-SMA level in lung at 30 mg/kg, po; type: functional, organism-based
[6] = tested on: PASMC; test: Inhibition of autophagy in human PASMC cells assessed as increase in LC3B-II/I level at 5 uM incubated for 24 hrs under hypoxic condition by Western blotting analysis; type: functional, cell-based
[7] = tested on: Rattus norvegicus; test: Antifibrotic activity against hypoxia-induced Pulmonary Arterial Hypertension Sprague-Dawley rat model assessed as change in fibronectin-1 level in lung at 30 mg/kg, po; type: functional, organism-based

c1cc(-c2cnn3cc(-c4ccc(OCCN5CCCCC5)cc4)cnc23)ccn1 [DORSOMORPHIN]
active: Activity [1] | Activity [2] | inhibition [3] | inhibition [4] | Activity [5] | inhibition [6] | Activity [7]

Activity calls are given as the source filed them.
